Values quoted from earlier work in patent US4020150A (priority 1974, dated 1977).

Settings: in water; cited from earlier work

Structure (SMILES): Nc1ccc(S(=O)(=O)Nc2ncccn2)cc1 [sulfadiazine]
- pKa: 6.5
